Assay results published in ChEMBL document CHEMBL1130155, “Synthesis and structure-activity relationships of potent thrombin inhibitors: piperazides of 3-amidinophenylalanine” (J Med Chem, 1997).

Sequences of proteins named here, by UniProt entry; tags and fusion partners are left off. Residues count along the entry.
UniProt P00747, 97-580 limits assumed: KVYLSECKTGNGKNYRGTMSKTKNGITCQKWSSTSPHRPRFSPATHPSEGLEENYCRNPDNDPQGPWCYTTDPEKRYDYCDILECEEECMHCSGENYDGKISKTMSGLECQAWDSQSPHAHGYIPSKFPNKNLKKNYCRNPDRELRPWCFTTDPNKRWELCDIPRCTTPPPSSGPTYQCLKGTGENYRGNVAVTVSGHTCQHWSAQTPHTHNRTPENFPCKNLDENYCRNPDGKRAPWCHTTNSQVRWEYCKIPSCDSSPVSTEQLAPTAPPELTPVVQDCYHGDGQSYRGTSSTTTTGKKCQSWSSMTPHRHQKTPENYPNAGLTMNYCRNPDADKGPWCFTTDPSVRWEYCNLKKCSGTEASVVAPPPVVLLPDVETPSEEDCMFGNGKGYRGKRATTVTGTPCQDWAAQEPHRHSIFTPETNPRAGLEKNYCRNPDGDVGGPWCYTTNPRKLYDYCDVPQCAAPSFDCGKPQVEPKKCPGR
UniProt P00747, 581-810 limits assumed: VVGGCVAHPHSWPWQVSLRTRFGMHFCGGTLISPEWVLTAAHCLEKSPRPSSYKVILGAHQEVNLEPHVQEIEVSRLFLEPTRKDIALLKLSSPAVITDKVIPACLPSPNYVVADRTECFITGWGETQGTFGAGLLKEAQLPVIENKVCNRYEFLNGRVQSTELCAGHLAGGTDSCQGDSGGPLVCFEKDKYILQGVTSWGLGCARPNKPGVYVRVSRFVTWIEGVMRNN

Legend:
Prothrombin = Prothrombin (Bos taurus, UniProt P00735)
Plasminogen = Plasminogen (Homo sapiens, UniProt P00747); assay: Inhibitory activity against Plasmin.

Row | Structure (SMILES) | Ki (Prothrombin) [nM] | Ki (Plasminogen) [µM]
1 | CC(=O)N1CCN(C(=O)[C@@H](Cc2cccc(C(=N)N)c2)NS(=O)(=O)c2ccc3ccccc3c2)CC1 | 12 | 
2 | CS(=O)(=O)N1CCN(C(=O)[C@@H](Cc2cccc(C(=N)N)c2)NS(=O)(=O)c2ccc3ccccc3c2)CC1 | 2.1 | 
3 | N=C(N)c1ccc(C[C@@H](NC(=O)CNS(=O)(=O)c2ccc3ccccc3c2)C(=O)N2CCCCC2)cc1 |  | 30
4 | CS(=O)(=O)N1CCN(C(=O)[C@H](Cc2cccc(C(=N)N)c2)NS(=O)(=O)c2ccc3ccccc3c2)CC1 | 490 | 
5 | CC(=O)N1CCN(C(=O)[C@H](Cc2cccc(C(=N)N)c2)NS(=O)(=O)c2ccc3ccccc3c2)CC1 | 1900 | 
